Laboratory results as given in patent US20220080027A1, “METHODS OF TREATING NEURODEGENERATIVE DISEASES BY TARGETING THE PURINERGIC AND/OR ADENOSINE RECEPTORS” (Board of Regents, The University of Texas System, priority 2020, published 2022).

Columns and labels:
[1] = system: uninfected PBMCs (lymphocytes and monocytes); experiment: Transmigration of uninfected PBMCs across the in vitro BBB model in response to CCL2; assay type: cell-based, human; details: uninfected PBMCs preincubated with blocker, CCL2 100 ng/ml, 24 h
Procedure: (§1) Blood-brain barrier (BBB) model: This in vitro BBB model consists of primary human BMVEC and primary human astrocytes in co-culture on opposite sides of a gelatin-coated, 3 μm pore-size tissue culture insert (Falcon, B D, Franklin Lakes, N.J.) as described by the inventors. Co-cultures were maintained for three days to enable contact between astrocyte endfeet with BMVEC on the opposite side of the model as described. After this, the BBB model was treated with different ATP concentrations (Cat #A1852, Sigma Chemical Co., St. Louis, Mo., USA), and BBB permeability was measured using BSA conjugated to Evans Blue, as described by the inventors.

[2] = system: HIVADA infected PBMCs (lymphocytes and monocytes); experiment: Transmigration of HIVADA infected PBMCs across the in vitro BBB model in response to CCL2; assay type: cell-based, human; details: HIV-infected (HIVADA) PBMCs preincubated with blocker, CCL2 100 ng/ml, 24 h
Procedure: as §1
PBMCs infected with the HIVADA were added to the top chamber of BBB co-cultures without CCL2 in the bottom chamber (HIV).

For `CCCN(CCC)S(=O)(=O)c1ccc(C(=O)O)cc1` [probenecid], the “effect on transmigration of lymphocytes and monocytes induced by CCL2” value (“effect on transmigration” below) [1] was “reduced the transmigration”, the “effect on transmigration” value ([1]; listed as Probenecid) was “reduced transmigration to control levels” and the “effect on transmigration” value [2] was “reduced the transmigration”. The “effect on transmigration” value ([2]; listed as Probenecid) was “prevented transmigration”.
